Measurements: PMC11613296, “Post-Translational Modifications Control Phase Transitions of Tau” (ACS Central Science, 2024)

Target: T1, 2N4R Tau(2–441) (human, UniProt P10636-8)
T1 construct: microtubule-associated protein Tau, 2N4R isoform, residues 2-441; numbers count on: 2N4R Tau; the Supporting Information may tell; also called recombinant 2N4R Tau; source: recombinant
Assay: ELISA; Tau(291–391) proteoforms immobilised on a PVC plate, recombinant 2N4R Tau(2–441) in solution, detected with Tau-13 mAb (residues 15–25) and anti-mouse IgG HRP; Langmuir binding curves, apparent KD, three replicates
Settings: both partners purified

B1: Tau(291–391) GlcNAcN359 + AcK353 (peptide, UniProt P10636-8 291-391, looked up)
chain: CGSKDNIKHVPGGGSVQIVYKPVDLSKVTSKCGSLGNIHHKPGGGQVEVKSEKLDFKDRVQSKIGSLDNITHVPGGGNKKIETHKLTFRENAKAKTDHGAE
modifications: N-acetyl glucosamine on N359; N-acetyllysine at 353
notes: microtubule-associated protein Tau, residues 291-391; numbers count on: 2N4R Tau; also called GlcNAcK359 + AcK353; source: synthetic: chemical protein synthesis (SPPS of three segments, DSL and NCL), HPLC purified
Does B1 bind?
Result: binds

B2: Tau(291–391) GlcNAcN359 + pS305 (peptide, UniProt P10636-8 291-391, looked up)
chain: B1 chain
modifications: N-acetyl glucosamine on N359; phosphoserine at 305
notes: microtubule-associated protein Tau, residues 291-391; numbers count on: 2N4R Tau; source: synthetic: chemical protein synthesis (SPPS of three segments, DSL and NCL), HPLC purified
Does B2 bind?
Result: binds
